Test results from ChEMBL document CHEMBL1127372, “The discovery and structure-activity relationships of 1,2,3,6-tetrahydro-4-phenyl-1-[(arylcyclohexenyl)alkyl]pyridines. Dopamine autoreceptor agonists and potential antipsychotic agents” (J Med Chem, 1994).

Sequences of proteins named here, by UniProt entry; tags and fusion partners are left off.
UniProt P61169, whole entry: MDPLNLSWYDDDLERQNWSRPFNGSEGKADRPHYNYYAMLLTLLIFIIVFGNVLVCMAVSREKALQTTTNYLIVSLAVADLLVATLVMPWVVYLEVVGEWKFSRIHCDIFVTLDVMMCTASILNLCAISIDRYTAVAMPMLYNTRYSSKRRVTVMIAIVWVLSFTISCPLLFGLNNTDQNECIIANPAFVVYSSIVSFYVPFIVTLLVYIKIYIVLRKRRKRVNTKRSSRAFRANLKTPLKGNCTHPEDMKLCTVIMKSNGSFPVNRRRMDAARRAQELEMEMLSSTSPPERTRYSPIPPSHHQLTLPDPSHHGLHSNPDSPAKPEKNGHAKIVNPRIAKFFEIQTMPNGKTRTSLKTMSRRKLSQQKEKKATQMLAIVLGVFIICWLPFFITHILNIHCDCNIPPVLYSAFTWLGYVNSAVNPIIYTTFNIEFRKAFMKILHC

Molecular target: D(2) dopamine receptor (Rattus norvegicus, UniProt P61169)

Q: How did the Ki turn out when `CN1CCc2cccc3c2[C@H]1Cc1ccc(O)c(O)c1-3` [APOMORPHINE] was run?
A: 17.3 nM
